{"source": "patent US12171806B2", "about": "“Therapeutic regimens and methods for lowering blood glucose and/or body weight using GLP-1R and GCGR balanced agonists” (priority 2021, dated 2024)", "test": "Phase 1 MAD study of ALT-801: adverse events (TEAEs), safety overview", "conditions": "Overall (N = 27)", "data": [{"smiles": "CC[C@H](C)[C@H](NC(=O)[C@H](Cc1ccccc1)NC(=O)[C@H](CCC(=O)O)NC(=O)[C@@H]1CCCCNC(=O)CC[C@H](NC(=O)[C@H](CC(=O)O)NC(=O)[C@H](CC(C)C)NC(=O)[C@H](Cc2ccc(O)cc2)NC(=O)[C@H](CCCCN)NC(=O)[C@H](CO)NC(=O)[C@H](Cc2ccc(O)cc2)NC(=O)[C@H](CC(=O)O)NC(=O)[C@H](CO)NC(=O)[C@@H](NC(=O)[C@H](Cc2ccccc2)NC(=O)[C@@H](NC(=O)CNC(=O)[C@H](CCC(N)=O)NC(=O)C(C)(C)NC(=O)[C@@H](N)Cc2c[nH]cn2)[C@@H](C)O)[C@@H](C)O)C(=O)N[C@@H](CCCCNC(=O)[C@H]2O[C@@H](OCCCCCCCCCCCCCCCCCC(=O)O)[C@H](O)[C@@H](O)[C@@H]2O)C(=O)N[C@@H](C)C(=O)N[C@@H](C)C(=O)N1)C(=O)N[C@@H](CCC(N)=O)C(=O)N[C@@H](Cc1c[nH]c2ccccc12)C(=O)N[C@@H](CC(C)C)C(=O)N[C@@H](CC(C)C)C(=O)N[C@@H](CCC(N)=O)C(=O)N[C@H](C(N)=O)[C@@H](C)O", "note": "[ALT-801, pemvidutide]", "values": [{"measurement": "TEAE Dyspepsia; Mild; %", "value": "(3.7%)"}, {"measurement": "TEAE Dyspepsia; Mild; n", "value": 1}, {"measurement": "TEAE Dyspepsia; Moderate; %", "value": "(0.0%)"}, {"measurement": "TEAE Dyspepsia; Moderate; n", "value": 0}, {"measurement": "TEAE Dyspepsia; PLT; %", "value": "(0.0%)"}, {"measurement": "TEAE Dyspepsia; PLT; n", "value": 0}, {"measurement": "TEAE Dyspepsia; Severe; %", "value": "(0.0%)"}, {"measurement": "TEAE Dyspepsia; Severe; n", "value": 0}, {"measurement": "TEAE Early satiety; Mild; %", "value": "(3.7%)"}, {"measurement": "TEAE Early satiety; Mild; n", "value": 1}, {"measurement": "TEAE Early satiety; Moderate; %", "value": "(0.0%)"}, {"measurement": "TEAE Early satiety; Moderate; n", "value": 0}, {"measurement": "TEAE Early satiety; PLT; %", "value": "(0.0%)"}, {"measurement": "TEAE Early satiety; PLT; n", "value": 0}, {"measurement": "TEAE Early satiety; Severe; %", "value": "(0.0%)"}, {"measurement": "TEAE Early satiety; Severe; n", "value": 0}, {"measurement": "TEAE Eye disorders; Mild; %", "value": "(3.7%)"}, {"measurement": "TEAE Eye disorders; Mild; n", "value": 1}, {"measurement": "TEAE Eye disorders; Moderate; %", "value": "(0.0%)"}, {"measurement": "TEAE Eye disorders; Moderate; n", "value": 0}, {"measurement": "TEAE Eye disorders; PLT; %", "value": "(0.0%)"}, {"measurement": "TEAE Eye disorders; PLT; n", "value": 0}, {"measurement": "TEAE Eye disorders; Severe; %", "value": "(0.0%)"}, {"measurement": "TEAE Eye disorders; Severe; n", "value": 0}, {"measurement": "TEAE Eye pain; Mild; %", "value": "(3.7%)"}, {"measurement": "TEAE Eye pain; Mild; n", "value": 1}, {"measurement": "TEAE Eye pain; Moderate; %", "value": "(0.0%)"}, {"measurement": "TEAE Eye pain; Moderate; n", "value": 0}, {"measurement": "TEAE Eye pain; PLT; %", "value": "(0.0%)"}, {"measurement": "TEAE Eye pain; PLT; n", "value": 0}, {"measurement": "TEAE Eye pain; Severe; %", "value": "(0.0%)"}, {"measurement": "TEAE Eye pain; Severe; n", "value": 0}, {"measurement": "TEAE Fatigue; Mild; %", "value": "(7.4%)"}, {"measurement": "TEAE Fatigue; Mild; n", "value": 2}, {"measurement": "TEAE Fatigue; Moderate; %", "value": "(0.0%)"}, {"measurement": "TEAE Fatigue; Moderate; n", "value": 0}, {"measurement": "TEAE Fatigue; PLT; %", "value": "(0.0%)"}, {"measurement": "TEAE Fatigue; PLT; n", "value": 0}, {"measurement": "TEAE Fatigue; Severe; %", "value": "(0.0%)"}, {"measurement": "TEAE Fatigue; Severe; n", "value": 0}, {"measurement": "TEAE Food poisoning; Mild; %", "value": "(0.0%)"}, {"measurement": "TEAE Food poisoning; Mild; n", "value": 0}, {"measurement": "TEAE Food poisoning; Moderate; %", "value": "(3.7%)"}, {"measurement": "TEAE Food poisoning; Moderate; n", "value": 1}, {"measurement": "TEAE Food poisoning; PLT; %", "value": "(0.0%)"}, {"measurement": "TEAE Food poisoning; PLT; n", "value": 0}, {"measurement": "TEAE Food poisoning; Severe; %", "value": "(0.0%)"}, {"measurement": "TEAE Food poisoning; Severe; n", "value": 0}, {"measurement": "TEAE Fungal infection; Mild; %", "value": "(3.7%)"}, {"measurement": "TEAE Fungal infection; Mild; n", "value": 1}, {"measurement": "TEAE Fungal infection; Moderate; %", "value": "(0.0%)"}, {"measurement": "TEAE Fungal infection; Moderate; n", "value": 0}, {"measurement": "TEAE Fungal infection; PLT; %", "value": "(0.0%)"}, {"measurement": "TEAE Fungal infection; PLT; n", "value": 0}, {"measurement": "TEAE Fungal infection; Severe; %", "value": "(0.0%)"}, {"measurement": "TEAE Fungal infection; Severe; n", "value": 0}, {"measurement": "TEAE Fungal skin; Mild; %", "value": "(3.7%)"}, {"measurement": "TEAE Fungal skin; Mild; n", "value": 1}, {"measurement": "TEAE Gastrointestinal disorders; Mild; %", "value": "(40.7%)"}, {"measurement": "TEAE Gastrointestinal disorders; Mild; n", "value": 11}, {"measurement": "TEAE Gastrointestinal disorders; Moderate; %", "value": "(33.3%)"}, {"measurement": "TEAE Gastrointestinal disorders; Moderate; n", "value": 9}, {"measurement": "TEAE Gastrointestinal disorders; PLT; %", "value": "(0.0%)"}, {"measurement": "TEAE Gastrointestinal disorders; PLT; n", "value": 0}, {"measurement": "TEAE Gastrointestinal disorders; Severe; %", "value": "(0.0%)"}, {"measurement": "TEAE Gastrointestinal disorders; Severe; n", "value": 0}, {"measurement": "TEAE Haematemesis; Mild; %", "value": "(3.7%)"}, {"measurement": "TEAE Haematemesis; Mild; n", "value": 1}, {"measurement": "TEAE Haematemesis; Moderate; %", "value": "(0.0%)"}, {"measurement": "TEAE Haematemesis; Moderate; n", "value": 0}, {"measurement": "TEAE Haematemesis; PLT; %", "value": "(0.0%)"}, {"measurement": "TEAE Haematemesis; PLT; n", "value": 0}, {"measurement": "TEAE Haematemesis; Severe; %", "value": "(0.0%)"}, {"measurement": "TEAE Haematemesis; Severe; n", "value": 0}, {"measurement": "TEAE Infections and infestations; Mild; %", "value": "(25.9%)"}, {"measurement": "TEAE Infections and infestations; Mild; n", "value": 7}, {"measurement": "TEAE Infections and infestations; Moderate; %", "value": "(0.0%)"}, {"measurement": "TEAE Infections and infestations; Moderate; n", "value": 0}, {"measurement": "TEAE Infections and infestations; PLT; %", "value": "(0.0%)"}, {"measurement": "TEAE Infections and infestations; PLT; n", "value": 0}, {"measurement": "TEAE Infections and infestations; Severe; %", "value": "(0.0%)"}, {"measurement": "TEAE Infections and infestations; Severe; n", "value": 0}, {"measurement": "TEAE Injection site bruising; Mild; %", "value": "(3.7%)"}, {"measurement": "TEAE Injection site bruising; Mild; n", "value": 1}, {"measurement": "TEAE Injection site bruising; Moderate; %", "value": "(0.0%)"}, {"measurement": "TEAE Injection site bruising; Moderate; n", "value": 0}, {"measurement": "TEAE Injection site bruising; PLT; %", "value": "(0.0%)"}, {"measurement": "TEAE Injection site bruising; PLT; n", "value": 0}, {"measurement": "TEAE Injection site bruising; Severe; %", "value": "(0.0%)"}, {"measurement": "TEAE Injection site bruising; Severe; n", "value": 0}]}]}
